TrxR1 substrate: is turned over as a substrate by rat TrxR1; AID 588456; Potency, µM (highest dose often 114 µM); purified TrxR1 substrate turnover, NADPH consumption readout; 390,000 compounds, 0.01% hits; O89049; note: nearly all actives have a fitted effect of over 50% in size
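Rat TrxR1, dispensed at 90 nM, was prereduced with 400 uM NADPH (final) for 5 min at ~22 deg C, then incubated with compound 15 min before 400 uM selenite. A first-read NADPH fluorescence drop versus no-compound background flagged substrates.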
rTrxR1 inhibitor: rat TrxR1 inhibition | AID 588453 | O89049 | recombinant rTrxR1, NADPH fluorescence consumption, selenite substrate | Potency, µM (top dose mostly 114 µM), usual class: inhibitors | 390,000 compounds, 1% hits; note: nearly all actives have a fitted effect of over 65% in size
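Rat TrxR1 (90 nM in the dispensed reagent) was pre-reduced with 400 uM NADPH for 5 min at room temperature, then incubated with compound for 15 min. After 400 uM selenite was added, NADPH fluorescence (Ex 340/Em 450 nm) was followed for 8 min.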
miR-21 FLuc: miR-21 reporter, rising signal. HeLa miR-21 FLuc reporter, luciferase, 48 h. Potency, µM (titrated, usually from 38.3 µM). 340,000 tested, under 10 active. AID 2288; active = well fitted rising curve with a large enough effect; inconclusive = small, poorly fitted or top-dose-only effect; inactive = no such curve, though single readings can be large or run the other way;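 also: miR-21 action dims this reporter so a rising signal means less miR-21 action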
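HeLa miR-21-FLuc reporter line, endogenous miR-21; 2000 cells/well in DMEM/10% FBS; compound titration up to ~40uM final, 48 h, 37 degree Celsius; luciferase detection reagent, 15 min lysis, CCD luminescence.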
ClpP mod: qHTS Assay for Activators of ClpP; purified B. subtilis ClpP, FRET peptide cleavage, 20 min; AID 651965, 2013; Potency, µM (titrated, usually from 57.5 µM); ATP-dependent Clp protease proteolytic subunit (Bacillus subtilis (strain 168)), P80244; 340,000 compounds, 1.9% hits; active = well fitted falling curve with a large enough effect; inconclusive = small, poorly fitted or top-dose-only effect; inactive = no such curve, though single readings can be large or run the other way; note: the source files actives as falling curves though it sought activators and does not explain the sign; nearly all actives have a fitted effect of over 65% in size
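ClpP 10 microg/mL final, pH 8 Tris/KCl buffer with BSA, glycerol, Tween-20; compound pinned in; FRET-FV substrate; RT 20 min; Ex320/Em430; ΔFRET vs ADEP 5.8 microM, DMSO, no enzyme.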
Apoferritin bind: candidate novel general anesthetic via apoferritin binding; P02791; apoferritin/1-aminoanthracene competitive binding, fluorescence; AID 485281; Potency, µM (highest dose often 77.5 µM), hits mostly inhibitors; 350,000 compounds, 0.074% hits; note: nearly all actives have a fitted effect of over 20% in size
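Horse-spleen apoferritin (10 uM) was mixed with 50% saturated 1-aminoanthracene in PBS, exposed to compounds for 10 min at room temperature, and read for fluorescence (ex 380 nm, em 535 nm). Competitive displacement was fitted with a four-parameter Hill equation.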
Numbers stand for hits; – = inactive; ? = inconclusive; · = no result given. Compounds with a hit are over-represented: about 2.5% of the library has one in this group of screens. Unless noted, calls come from the whole dose curve; as a rule, active = well fitted curve in the direction sought with a large enough effect; inconclusive = small, poorly fitted or top-dose-only effect, or another doubt; inactive = no such curve, though single readings can be large; an effect the other way counts as inactive or inconclusive.

Amino acid sequences for entries named in this document (tags omitted).
ATP-dependent Clp protease proteolytic subunit (Bacillus subtilis (strain 168)), P80244, UniProt P80244, whole entry, looked up: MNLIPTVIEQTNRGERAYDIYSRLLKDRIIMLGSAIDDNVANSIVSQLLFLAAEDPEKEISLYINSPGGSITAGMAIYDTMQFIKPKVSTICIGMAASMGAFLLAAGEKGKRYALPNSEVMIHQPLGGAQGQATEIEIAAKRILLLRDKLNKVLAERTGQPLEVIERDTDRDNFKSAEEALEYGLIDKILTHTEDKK

SMILES	TrxR1 substrate	rTrxR1 inhibitor	miR-21 FLuc	ClpP mod	Apoferritin bind
CCN(CC)CCN(C(=O)CCS(=O)(=O)c1ccccc1)c1nc2cc(C)cc(C)c2s1	–	14µM	–	–	–
CCN(CC)CCN(C(=O)CCS(=O)(=O)c1ccccc1)c1nc2c(C)cc(C)cc2s1	–	?	–	–	–
O=C(CCS(=O)(=O)c1ccccc1)N(Cc1cccnc1)c1nc2ccc(F)cc2s1	–	3.2µM	–	–	–
CC(=O)N1CCC(N(Cc2ccc(C)o2)C(=O)Nc2cccc(C(F)(F)F)c2)CC1	–	–	–	–	–
Cc1cccc(NC(=O)CCS(=O)(=O)c2cc(Br)cc3c2N(C(=O)C2CC2)CC3)c1	–	–	–	–	–
CCc1nc(-c2cc3ccc(C)cc3[nH]c2=O)no1	–	–	–	14µM	–
Cc1ccc2cc(-c3noc(C(C)(C)C)n3)c(=O)[nH]c2c1	–	–	–	28µM	–
CCc1nnc(SCc2nc(-c3ccccc3)oc2C)c2cc3sccc3n12	–	–	–	–	–
CC(=O)CSc1nc(-c2ccccc2)c(-c2ccccc2)o1	–	–	–	28µM	–
Cc1ccc(NC(=O)C2CCCN(S(=O)(=O)c3cccs3)C2)c(C)c1 (configuration not stated)	–	–	–	–	–
Cc1cc2[nH]c3ccccc3c2c(C)n1	–	–	–	28µM	–
Cc1[nH]c2ccccc2c1C(c1c(C)[nH]c2ccccc12)c1c(C)[nH]c2ccccc12	–	–	·	–	·
COc1ccc(N(Cc2cccs2)C(=O)Nc2ccccc2)cc1	–	–	–	–	–
COc1cc(/C=C2\N=C(C)OC2=O)cc(Cl)c1OC(C)=O	–	40µM	–	–	–
CCCCCc1c(O)c2ccccc2[nH]c1=O	–	–	–	25µM	–
CCCCCOC(=O)Cc1c(O)c2ccccc2[nH]c1=O	–	–	–	16µM	–
CC(C)COC(=O)Cc1c(O)c2ccccc2[nH]c1=O	–	–	–	28µM	–
CCCCOC(=O)Cc1c(O)c2ccccc2[nH]c1=O	–	–	–	?	–
COc1ccccc1NC(=O)c1cnc(SCC(=O)N2CCOCC2)n(C)c1=O	–	–	–	–	–
C[n+]1ccnc2cc(Cl)ccc21	–	?	·	–	·
COc1cccc(Cn2c(=O)n(-c3ccc(C)c(F)c3)c(=O)c3sc4ccccc4c32)c1	–	–	–	?	–
COc1ccc(OCc2ccc(-c3nc(C#N)c(N4CCN(C)CC4)o3)o2)cc1	–	–	–	28µM	–
Cc1ccc(OCc2ccc(-c3nc(C#N)c(N4CCC(C)CC4)o3)o2)cc1	–	–	–	–	–
N#Cc1nc(-c2ccc(COc3ccc(Cl)cc3)o2)oc1N1CCN(c2ccccc2)CC1	–	–	–	–	–
CCN1CCN(c2oc(-c3ccc(COc4ccc(C)cc4)o3)nc2C#N)CC1	–	–	–	32µM	–
SMILES	TrxR1 substrate	rTrxR1 inhibitor	miR-21 FLuc	ClpP mod	Apoferritin bind
COc1ccc(-c2nc(C#N)c(N3CCCCC3)o2)cc1	–	–	–	–	–
COc1ccc(OCc2ccc(-c3nc(C#N)c(N4CCN(c5cccc(Cl)c5)CC4)o3)o2)cc1	–	–	–	3.5µM	–
COc1ccc(OCc2ccc(-c3nc(C#N)c(N4CCCCC4)o3)o2)cc1	–	–	–	28µM	–
Cc1cccc2c1-c1sc(C(=O)NCCCN3CCN(c4cccc(Cl)c4)CC3)cc1CO2	–	–	?	–	–
CCC(Sc1nnc2c3ccccc3n(CC)c2n1)C(=O)Nc1ccc(NC(C)=O)cc1 (configuration not stated)	–	–	–	–	–
CC(C)(C)n1ncc2c(=O)n(Cc3ccc(F)c(F)c3F)cnc21	–	–	·	·	·
COc1ccc2[nH]c(C)c(C(=O)CN(C)CC(OC)OC)c2c1	–	?	·	–	·
COc1ccc(C(=O)NC2CCCCCC2)cc1S(=O)(=O)N1CCOCC1	–	–	–	25µM	–
COCCn1cc(C(=O)NCCCN2CCC(C)CC2)c2c3ccccc3n(C)c2c1=O	–	–	–	32µM	–
CCN1CCN(CCCNC(=O)c2cn(CCOC)c(=O)c3c2c2ccccc2n3C)CC1	–	–	–	3.2µM	–
CCN(CC)CCNC(=O)c1cn(CCOC)c(=O)c2c1c1ccccc1n2C	–	–	–	–	–
CCc1ccc(CNC(=O)C2CCCN(c3nn4cc(-c5ccc(F)cc5)nc4s3)C2)cc1 (configuration not stated)	–	–	–	–	–
COc1ccc2c(c1)C=C/C2=C\c1ccc(N(C)C)cc1	–	–	·	–	·
COc1ccc(Cl)cc1Nc1ncnc2sc(C)c(S(=O)(=O)N3CCC(C)CC3)c12	–	–	–	32µM	–
O=C(Nc1ccccc1)[C@@H]1CC=C[C@@H]2CCN(C3CC3)C(=O)[C@@H]21	–	–	·	–	·
COc1ccc2c(c1OC)C(=O)N1c3ccccc3C(=O)N(Cc3ccco3)C21 (configuration not stated)	–	40µM	·	–	·
COc1ccc2c(c1OC)C(=O)N1c3ccccc3C(=O)N(c3ccccc3F)C21 (configuration not stated)	–	–	–	–	–
O=S(=O)(Nc1ccc(-c2ccc(N3CCCC3)nn2)cc1)c1cc(F)ccc1F	–	–	–	–	–
CC(C)(C)C(=O)Nc1c(C(=O)N2CCN(c3ccc(F)cc3)CC2)oc2ccccc12	–	–	–	–	–
O=C(CCn1c(=O)c2ccccc2n(Cc2cccc([N+](=O)[O-])c2)c1=O)N1CCc2ccccc2C1	–	–	–	25µM	–
CCn1c(=O)c2ccccc2n(Cc2cccc([N+](=O)[O-])c2)c1=O	–	–	–	·	–
CC(=O)OCC1=C(C(=O)OC(C)(C)C)N2C(=O)[C@@H](NC(=O)Cc3ccccc3)[C@H]2SC1	–	6.3µM	·	–	·
O=c1n(Cc2ccc([N+](=O)[O-])cc2)c2ccccc2c2nc(-c3ccccc3)nn12	–	–	–	–	–
CCC(=O)N(C1=C(NC)C(=O)c2ccccc2C1=O)C(C)C	–	–	?	–	–
CCC(=O)N(CC)C1=C(O)c2ccccc2C(=O)C1=O	–	1.1µM	–	–	–
SMILES	TrxR1 substrate	rTrxR1 inhibitor	miR-21 FLuc	ClpP mod	Apoferritin bind
Cn1c(=O)c2c(-c3ccccc3Cl)n(Cc3ccc(Cl)cc3)cc2n(C)c1=O	–	–	–	25µM	–
Cc1ccc(-c2c3c(=O)n(C)c(=O)n(C)c3cn2Cc2ccccc2)cc1	–	?	–	–	–
Cc1ccc(C)c(C(=O)Nc2nc3ccccc3[nH]2)c1	–	–	–	·	–
Cc1ccc(Nc2nc3ccccc3[nH]2)nc1	–	–	–	35µM	–
Cc1cc(N)n2ncc(-c3ccccc3)c2n1	–	–	–	–	–
Cc1cc(N)n2ncc(-c3cccc(Br)c3)c2n1	–	–	–	18µM	?
CCOc1ccc(CCNC(=O)CCc2cn(Cc3ccc(C)cc3)c3ccccc23)cc1	–	–	–	?	–
